Laboratory results published in PubChem BioAssay AID504700 (The Scripps Research Institute Molecular Screening Center, 2011).
This is a selection; strong and weak results do not stand in their true shares. Some salts and complexes are drawn in separate pieces, as the source files them; their charges need not balance. Activity calls are given as the source filed them.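 Rule for the calls: active = activation above a cutoff set at the mean over all compounds plus 3 SD (cut at about 18% in these data); inactive = the rest.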

The chains behind the UniProt entries cited, without tags or fusion partners.
UniProt P31323, whole entry, looked up: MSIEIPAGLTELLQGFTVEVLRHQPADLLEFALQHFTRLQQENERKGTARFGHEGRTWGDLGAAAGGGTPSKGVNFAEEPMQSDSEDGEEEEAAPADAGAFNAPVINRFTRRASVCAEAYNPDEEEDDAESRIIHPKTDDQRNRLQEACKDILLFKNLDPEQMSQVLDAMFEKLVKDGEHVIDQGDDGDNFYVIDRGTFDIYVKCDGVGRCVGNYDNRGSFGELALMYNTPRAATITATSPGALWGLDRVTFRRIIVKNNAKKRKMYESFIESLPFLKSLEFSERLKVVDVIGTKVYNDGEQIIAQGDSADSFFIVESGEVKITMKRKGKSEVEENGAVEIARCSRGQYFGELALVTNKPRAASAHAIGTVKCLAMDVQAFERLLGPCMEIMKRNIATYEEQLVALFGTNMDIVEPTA

These compounds were tested against cAMP-dependent protein kinase catalytic subunit beta (Homo sapiens) + cAMP-dependent protein kinase type II-beta regulatory subunit (Homo sapiens) (UniProt P22694+P31323) (assay: activators of PKA-R2B holoenzyme, primary screen, biochemical, fluorescence polarization, Cy5-IP20, human (AID 504700;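 note: higher means more holoenzyme dissociation and a rise in polarization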)). Conditions: PKA-R2B holoenzyme dissociation, at 11.4 µM, stronger effect = higher value, 0% DMSO only, 100% 113 µM cGMP, R2B truncated from residue 108, S112A mutant.
`COc1ccc2c(c1O)-c1c(O)c(OC)cc3c1[C@H](C2)[N+](C)(C)CC3.O=[N+]([O-])c1cc([N+](=O)[O-])c([O-])c([N+](=O)[O-])c1[O-]` was tested, and the activation was inactive: -1.86%. In the case of `CCOC(=O)c1ccc(NP(C)(=O)Oc2ccc(F)cc2)cc1` (stereo unspecified), the activation is reported as inactive: -0.17%. With `COc1ccc(OP(C)(=O)Nc2ccc(SC(F)(F)F)cc2)cc1` (stereo unspecified) the activation was inactive: -0.96%. With `Cc1c([N+](=O)[O-])cc([N+](=O)[O-])c(Br)c1[N+](=O)[O-]` the activation was inactive: -8.95%. `CCN(CC)CCCOC(=O)C(O)(c1ccccc1)C1CCCCC1` (stereo unspecified) was tested, and the activation was inactive: 0.48%. In the case of `CP(=O)(Nc1ccccc1)Oc1ccc(F)cc1` (stereo unspecified), the activation is reported as inactive: -2.57%. `CCCCCOc1ccc(NP(C)(=O)Oc2ccc(Cl)cc2Cl)cc1` (stereo unspecified) was tested, and the activation was inactive: -21.3%. For `O=[N+]([O-])c1cc([N+](=O)[O-])c(OC2CCCCC2O)c([N+](=O)[O-])c1` (stereo unspecified), the activation was inactive: -5.16%. With `COc1ccc(OP(C)(=O)Nc2cccc(Br)c2)cc1` (stereo unspecified) the activation was inactive: 1.81%. For `CN(C)CCOC(=O)C(O)(c1ccccc1)C1CCCCC1` (stereo unspecified), the activation was inactive: 0.57%. `COc1ccc(NP(C)(=O)Oc2ccccc2OC)cc1` (stereo unspecified) was tested, and the activation was active: 19.5%. With `O=[N+]([O-])c1ccc(OP2(=O)COCCO2)cc1` (stereo unspecified) the activation was inactive: 0.96%. For `O=[N+]([O-])c1cc([N+](=O)[O-])c(NCC2CCS(=O)(=O)C2)c([N+](=O)[O-])c1` (stereo unspecified), the activation was inactive: -1.86%. For `Cc1cc(-c2cccc3ccccc23)c(C)cn1.O=[N+]([O-])c1cc([N+](=O)[O-])c(O)c([N+](=O)[O-])c1`, the activation was inactive: -3.96%. In the case of `Cc1c(C(c2ccc3c(c2)OCO3)c2c(C)n(C)n(-c3ccccc3)c2=O)c(=O)n(-c2ccccc2)n1C.O=[N+]([O-])c1cc([N+](=O)[O-])c(O)c([N+](=O)[O-])c1`, the activation is reported as inactive: -4.9%. `CP(=O)(Nc1ccc(SC(F)(F)F)cc1)Oc1ccc(F)cc1` (stereo unspecified) was tested, and the activation was inactive: -1.43%. In the case of `CCOP(C)(=S)SCC(=O)NC(C)(CC)C(=O)O` (stereo unspecified), the activation is reported as inactive: 6.05%. In the case of `CP(=O)(Nc1ccc2c(c1)OCCO2)Oc1ccccc1` (stereo unspecified), the activation is reported as inactive: 3.68%. For `Cc1ccccc1NP(C)(=O)Nc1ccccc1C`, the activation was inactive: 3.86%. In the case of `CCN(CC)CC(O)COC(=O)C(O)(c1ccccc1)C1CCCCC1` (stereo unspecified), the activation is reported as inactive: 1.41%. For `COc1ccc(OP(C)(=O)Nc2ccc(Br)cc2)cc1` (stereo unspecified), the activation was inactive: -14.1%. For `COc1ccccc1OP(C)(=O)Nc1c(C)n(C)n(-c2ccccc2)c1=O` (stereo unspecified), the activation was inactive: -5.63%. In the case of `O=C(OCCCN1CCCC1)C(O)(c1ccccc1)C1CCCCC1` (stereo unspecified), the activation is reported as inactive: 2.56%. `CP(=O)(Oc1ccccc1)N1CCOC1=O` (stereo unspecified) was tested, and the activation was inactive: 7.07%. With `CCc1ccc(OP(C)(=O)Nc2cccnc2)cc1` (stereo unspecified) the activation was inactive: 2.09%. For `CC(C)(C)c1ccc(OP(C)(=O)O)cc1`, the activation was inactive: 10.5%. `COc1ccccc1OP(C)(=O)Nc1ccccc1Br` (stereo unspecified) was tested, and the activation was inactive: -9.27%. `CP(=O)(Nc1ccc(Cl)cc1)Oc1ccc(F)cc1` (stereo unspecified) was tested, and the activation was inactive: 6.05%. In the case of `CN(C)C(=O)c1c([N+](=O)[O-])cc([N+](=O)[O-])cc1[N+](=O)[O-]`, the activation is reported as inactive: -13.8%. In the case of `CCOC(=O)c1ccc(NP(C)(=O)Oc2ccc(Cl)cc2)cc1` (stereo unspecified), the activation is reported as inactive: -0.75%. `CP(=O)(OC12CC3CC(CC(C3)C1)C2)OC12CC3CC(CC(C3)C1)C2` was tested, and the activation was inactive: -2.85%. With `O=C1C(O)=C([N+](=O)[O-])C(=O)C(O)=C1[N+](=O)[O-]` the activation was inactive: -9.68%. For `Cc1cc(C)cc(OP(C)(=O)Nc2cccc(C(F)(F)F)c2)c1` (stereo unspecified), the activation was inactive: -14.6%. `COc1ccccc1OP(C)(=O)Nc1ccc(C)c(C)c1` (stereo unspecified) was tested, and the activation was inactive: -11.7%. In the case of `COc1ccc(OP(C)(=O)Nc2ccccc2Br)cc1` (stereo unspecified), the activation is reported as inactive: -6.12%. For `CP(=O)(OCCOc1ccccc1)OCCOc1ccccc1`, the activation was inactive: -9.92%. In the case of `CCCCCCCCCCCCCCCC1C[N+](C)(C)CCOP(C)(=O)O1` (stereo unspecified), the activation is reported as inactive: 4.78%. For `CP(=O)(Nc1ccc(Cl)cc1Cl)Oc1ccccc1` (stereo unspecified), the activation was inactive: -3.5%. `COc1ccccc1OP(C)(=O)Nc1ccc(Br)cc1` (stereo unspecified) was tested, and the activation was inactive: -6.57%. In the case of `COc1ccc(OP(C)(=O)Nc2ccccn2)cc1` (stereo unspecified), the activation is reported as inactive: -5.05%. `CN(C)CCOC(=O)C(O)(c1ccccc1)C1CCCC1` (stereo unspecified) was tested, and the activation was inactive: -0.43%. `O=[N+]([O-])c1cc([N+](=O)[O-])c(Nc2ccccn2)c([N+](=O)[O-])c1` was tested, and the activation was inactive: -2.64%. In the case of `Cc1c(NP(C)(=O)Oc2ccc(C(C)C)cc2)c(=O)n(-c2ccccc2)n1C` (stereo unspecified), the activation is reported as inactive: 2.22%. For `CP(=O)(Nc1ccccn1)Oc1ccccc1` (stereo unspecified), the activation was inactive: -15.2%. `COc1ccccc1OP(C)(=O)Nc1ccc(C)cc1C` (stereo unspecified) was tested, and the activation was inactive: -10.4%. `CCc1ccc(OP(C)(=O)O)cc1` was tested, and the activation was inactive: -0.95%.
